Measurements published in patent publication US8106031B2, “Hydrolytically-resistant boron-containing therapeutics and methods of use” (Anacor Pharmaceuticals, Inc., priority 2006, dated 2012).

System: Cryptococcus neoformans
Test: MIC against C. neoformans (NCCLS broth dilution)
Assay type: cell-based
Conditions: 19a relative to 9a, 19b relative to 9b
Excerpt: To determine the antifungal activity of these compounds we screened for their minimum inhibitory concentrations (MIC) against the major dermatophytes that cause onychomycosis, T. rubrum and T. mentagrophytes, and against the yeasts and molds C. albicans, C. neoformans and A. fumigatus to test for their broad spectrum activity. The antifungal agent ciclopirox, currently in use for the topical treatment of onychomycosis, was used as a reference.
All MIC testing against Trichophyton rubrum, Trichophyton mentagrophytes, Candida albicans, Cryptococcus neoformans and Aspergillus fumigatus were determined following the National Committee for Clinical Laboratory Standards (NCCLS) guidelines for antimicrobial testing of yeasts and filamentous fungi.^i,ii
Two-fold serial dilutions of the test compounds were prepared in 96-well plates. […] Pfaller M A, Chaturvedi V, Espinel-Ingroff A, Ghannoum M A, Gosey L L, Odds F C, Rex J H, Rinaldi M G, Sheehan D J, Walsh T J, Warnock D W. NCCLS publication M27-A2—Reference Method for Broth Dilution Antifungal Susceptibility Testing of Yeasts; Approved Standard—Second Edition. […] Pfaller M A, Chaturvedi V, Espinel-Ingroff A, Ghannoum M A, Gosey L L, Odds F C, Rex J H, Rinaldi M G, Sheehan D J, Walsh T J, Warnock D W. NCCLS publication M38-A—Reference Method for Broth Dilution Antifungal Susceptibility Testing of Filamentous Fungi; Approved Standard.

**Q.** `OB1OCc2ccccc21` [19a, 1,3-Dihydro-1-hydroxy-2,1-benzoxaborole] was tested. Which “fold increase in activity against C. neoformans” value did it give?
**A.** 8 fold
